The values that follow come from patent publication US9951014B2, “Mammalian and bacterial nitric oxide synthase inhibitors” (Northwestern University, priority 2014, dated 2018).

The chains behind the UniProt entries cited, without tags or fusion partners.
UniProt O34453, whole entry I218V: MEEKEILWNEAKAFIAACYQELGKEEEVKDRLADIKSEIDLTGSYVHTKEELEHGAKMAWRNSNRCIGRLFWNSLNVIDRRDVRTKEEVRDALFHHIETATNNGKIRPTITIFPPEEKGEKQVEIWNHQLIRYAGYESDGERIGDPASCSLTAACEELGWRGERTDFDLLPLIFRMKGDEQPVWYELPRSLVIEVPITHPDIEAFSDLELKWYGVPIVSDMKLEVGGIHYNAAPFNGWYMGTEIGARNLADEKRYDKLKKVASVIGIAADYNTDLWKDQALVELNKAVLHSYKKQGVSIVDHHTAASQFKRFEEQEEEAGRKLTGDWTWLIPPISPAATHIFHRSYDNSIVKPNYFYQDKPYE

This assay has as its target I218V bsNOS (Bacillus subtilis (strain 168), UniProt O34453, I218V). Briefly: Imidazole displacement, spectral binding constant KS. The following applies: for Kd: I218V bsNOS, Table 8. Here is the method: Purified bsNOS was diluted to 2 μM into a buffered solution containing 50 mM Tris (pH 7.6), 10 mM NaCl, 100 μM dithiothreitol and 1 mM imidazole to generate a low spin heme. NOS inhibitors were titrated into the bsNOS-buffered solution and the conversion of the heme group from low spin to high spin was monitored using a Cary 3E UV-visible spectrophotometer.

What is called Kd is the free concentration of one partner at which half of the binding sites on the other are occupied at equilibrium, for simple one-to-one binding. Read a low Kd as higher affinity. Compound `Nc1ccc2ccc(CCNCCCc3cccc(F)c3)cc2n1` [Compound 19] yielded a Kd of 18 ± 2 µM.
In turn, `Cc1cc(N)nc(-c2ccc(CNCCc3cccc(F)c3)cc2)c1` [Compound 27, 6-(4-(((3-Fluorophenethyl)amino)methyl)phenyl)-4-methylpyridin-2-amine] came in with an equilibrium dissociation constant (Kd) of 58 ± 4 µM. Further, for the setting “imidazole displacement”, the “fold tighter inhibitor binding to Ile-218 (WT bsNOS) over I218V” value was 5-6 fold.
